In patent publication US20260294901A1 (INTRA-CELLULAR THERAPIES, INC., priority 2025, published 2026):
pKi: −log10 of the molar value.

By UniProt entry, the sequences of proteins in these tests, tags left out.
UniProt P21728, whole entry: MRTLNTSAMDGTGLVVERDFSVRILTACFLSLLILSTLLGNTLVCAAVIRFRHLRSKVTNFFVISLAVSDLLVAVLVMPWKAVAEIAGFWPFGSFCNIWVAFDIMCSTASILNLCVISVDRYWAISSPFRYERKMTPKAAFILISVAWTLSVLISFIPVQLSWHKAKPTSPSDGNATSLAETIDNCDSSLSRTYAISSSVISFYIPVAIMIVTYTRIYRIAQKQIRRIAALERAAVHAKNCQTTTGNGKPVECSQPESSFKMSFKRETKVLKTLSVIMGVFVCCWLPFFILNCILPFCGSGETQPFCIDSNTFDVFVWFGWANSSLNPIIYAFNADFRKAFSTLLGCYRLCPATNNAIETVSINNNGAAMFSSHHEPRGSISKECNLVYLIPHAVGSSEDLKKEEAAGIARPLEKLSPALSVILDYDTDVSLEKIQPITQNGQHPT

Target: dopamine D1 (Homo sapiens, UniProt P21728)
Assay: binding affinity for dopamine D1 receptors

In the case of CN1CCN2c3c(cccc31)[C@@H]1CN(CCCC(=O)c3ccc(F)cc3)CC[C@@H]12 [lumateperone, 4-((6bR,10aS)-3-methyl-2,3,6b,9,10,10a-hexahydro-1H-pyrido[3′,4′: 4,5]pyrrolo[1,2,3-de]quinoxaline-8(7H)-yl)-1-(4-fluorophenyl)-1-butanone], the pKi was 7.28.
